From ChEMBL document CHEMBL1128245, “Dual-acting thromboxane receptor antagonist/synthase inhibitors: synthesis and biological properties of [2-substituted-4-(3-pyridyl)-1,3-dioxan-5-yl] alkenoic acids” (J Med Chem, 1995) come the findings set out here.

Structures are written as SMILES.

Assay [1] deals with T1, Thromboxane-A synthase (Homo sapiens) (UniProt P24557).
T1 sequence (whole entry): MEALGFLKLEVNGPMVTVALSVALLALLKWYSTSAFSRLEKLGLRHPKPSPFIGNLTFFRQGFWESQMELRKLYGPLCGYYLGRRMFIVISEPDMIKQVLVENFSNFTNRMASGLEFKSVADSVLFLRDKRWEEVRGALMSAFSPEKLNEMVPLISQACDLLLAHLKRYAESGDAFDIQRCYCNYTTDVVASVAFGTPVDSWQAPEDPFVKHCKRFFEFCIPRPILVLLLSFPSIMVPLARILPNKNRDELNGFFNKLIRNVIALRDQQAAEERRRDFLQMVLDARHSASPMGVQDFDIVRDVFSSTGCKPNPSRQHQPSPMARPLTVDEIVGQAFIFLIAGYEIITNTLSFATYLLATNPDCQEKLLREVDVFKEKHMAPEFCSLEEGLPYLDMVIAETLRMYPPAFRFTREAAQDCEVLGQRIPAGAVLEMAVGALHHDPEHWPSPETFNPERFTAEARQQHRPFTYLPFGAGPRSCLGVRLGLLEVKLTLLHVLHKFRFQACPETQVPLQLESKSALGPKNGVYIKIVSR
Put plainly: Ex vivo thromboxane receptor (TXA2 synthase) inhibitory activity after 24 hr of oral dosing (10 mg/kg) in the dog. Type of assay: functional, organism-based. The note with it: Canis lupus familiaris.

Assay [2] has as its target T1, Thromboxane-A synthase (Homo sapiens). Put plainly: Ex vivo thromboxane receptor (TXA2 synthase) inhibitory activity after 24 hr of oral dosing (3 mg/kg) in the dog. The format is functional, organism-based. The note with it: Canis lupus familiaris.

Consider `Cc1ccc(OC(C)(C)C2OCC(C/C=C\CCC(=O)O)C(c3cccnc3)O2)c([N+](=O)[O-])c1` (stereo in doubt; 7x), for which the inhibition was found to be 57.1% in assay [1] and 46% in assay [2].
